PMC12836348, “Alanine Mutagenesis Identifies Specific Amino Acids of Nemertide Alpha‑1 Activity and Its Binding to Target Receptors” (Journal of Natural Products, 2025)

Amino acid sequences for entries named in this document (tags omitted).
UniProt Q14524, whole entry: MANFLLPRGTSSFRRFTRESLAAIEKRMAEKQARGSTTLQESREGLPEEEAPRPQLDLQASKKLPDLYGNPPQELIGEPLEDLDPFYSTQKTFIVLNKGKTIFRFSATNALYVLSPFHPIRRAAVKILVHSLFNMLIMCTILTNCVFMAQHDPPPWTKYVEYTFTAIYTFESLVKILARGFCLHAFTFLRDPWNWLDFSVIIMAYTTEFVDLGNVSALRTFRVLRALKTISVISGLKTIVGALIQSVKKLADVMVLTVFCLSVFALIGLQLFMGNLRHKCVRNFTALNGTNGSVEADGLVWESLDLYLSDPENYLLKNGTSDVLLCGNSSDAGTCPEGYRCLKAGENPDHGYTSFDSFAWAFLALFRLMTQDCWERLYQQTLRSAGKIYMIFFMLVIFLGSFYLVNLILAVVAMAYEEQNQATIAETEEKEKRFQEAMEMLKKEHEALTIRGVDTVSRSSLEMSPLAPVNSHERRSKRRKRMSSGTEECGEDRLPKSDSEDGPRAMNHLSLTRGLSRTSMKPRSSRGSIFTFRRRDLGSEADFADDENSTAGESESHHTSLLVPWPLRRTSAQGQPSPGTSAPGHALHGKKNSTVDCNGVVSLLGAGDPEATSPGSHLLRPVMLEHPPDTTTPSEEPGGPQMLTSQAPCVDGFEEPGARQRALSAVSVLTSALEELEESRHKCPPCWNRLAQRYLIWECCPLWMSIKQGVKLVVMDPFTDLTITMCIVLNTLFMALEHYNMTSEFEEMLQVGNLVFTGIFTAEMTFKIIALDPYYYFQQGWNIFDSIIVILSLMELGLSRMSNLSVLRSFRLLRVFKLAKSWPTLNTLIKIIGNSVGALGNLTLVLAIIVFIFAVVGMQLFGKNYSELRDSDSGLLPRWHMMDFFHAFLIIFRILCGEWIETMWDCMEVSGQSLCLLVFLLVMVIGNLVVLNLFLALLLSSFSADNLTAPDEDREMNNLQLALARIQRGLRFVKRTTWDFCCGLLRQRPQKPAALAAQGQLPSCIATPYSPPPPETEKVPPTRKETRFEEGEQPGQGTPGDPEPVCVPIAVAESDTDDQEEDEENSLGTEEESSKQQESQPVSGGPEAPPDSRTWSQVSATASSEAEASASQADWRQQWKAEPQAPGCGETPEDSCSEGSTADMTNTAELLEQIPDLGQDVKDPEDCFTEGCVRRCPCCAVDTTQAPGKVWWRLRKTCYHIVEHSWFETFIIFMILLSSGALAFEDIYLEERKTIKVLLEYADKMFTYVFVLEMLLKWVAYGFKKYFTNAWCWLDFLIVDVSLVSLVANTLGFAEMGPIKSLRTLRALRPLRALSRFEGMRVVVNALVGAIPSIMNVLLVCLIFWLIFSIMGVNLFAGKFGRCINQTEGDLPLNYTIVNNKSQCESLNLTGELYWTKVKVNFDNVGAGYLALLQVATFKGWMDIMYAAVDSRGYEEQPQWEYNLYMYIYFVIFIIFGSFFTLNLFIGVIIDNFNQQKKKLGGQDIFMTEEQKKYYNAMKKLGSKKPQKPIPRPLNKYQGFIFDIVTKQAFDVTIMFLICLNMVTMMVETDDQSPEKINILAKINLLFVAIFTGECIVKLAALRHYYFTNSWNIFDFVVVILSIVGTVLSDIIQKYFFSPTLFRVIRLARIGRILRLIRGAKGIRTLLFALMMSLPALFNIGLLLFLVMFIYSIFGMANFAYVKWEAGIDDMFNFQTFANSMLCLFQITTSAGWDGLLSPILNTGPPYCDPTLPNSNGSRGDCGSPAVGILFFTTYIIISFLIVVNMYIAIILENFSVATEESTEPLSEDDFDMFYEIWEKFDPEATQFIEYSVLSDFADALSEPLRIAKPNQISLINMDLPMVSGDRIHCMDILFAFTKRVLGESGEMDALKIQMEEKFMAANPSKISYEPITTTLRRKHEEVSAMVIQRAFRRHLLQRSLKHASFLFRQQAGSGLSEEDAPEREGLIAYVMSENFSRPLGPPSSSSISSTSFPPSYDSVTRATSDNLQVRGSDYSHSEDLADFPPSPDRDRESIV

Tests used:
BgNav1 = assay: Two-electrode voltage clamp, BgNav1 expressed in Xenopus laevis oocytes; format: cell-based, Blattella germanica; conditions: ex vivo, I30ms/Ipeak, Hill fit, n ≥ 3, highest tested concentration 50 μM
hNaV1.5 = target: T1, hNaV1.5 (Homo sapiens, UniProt Q14524); assay: Two-electrode voltage clamp, Nav1.5 in Xenopus laevis oocytes; format: cell-based; conditions: ex vivo, two-electrode voltage clamp in Xenopus laevis oocytes, Hill fit, n ≥ 3; highest tested concentration 50 μM
T1 construct: expressed in transfected cells; host or cells: Xenopus laevis oocytes (cRNA injection)
Experimental: For the expression of NaV channels (hNav1.1, rNaV1.2, rNaV1.3, rNaV1.4, hNaV1.5, hNaV1.6, hNav1.7, and the insect channel BgNaV1) in Xenopus laevis oocytes, the linearized plasmids were transcribed using the T7 or SP6 mMESSAGE-mMACHINE transcription kit (Ambion, Carlsbad, CA, USA). The harvesting of stage V and VI oocytes from an anaesthetized female X. laevis frog was described previously. , Oocytes were injected with 50 nL of cRNA at a concentration of 1 ng/nL using a microinjector (Drummond Scientific, Broomall, PA, USA). The oocytes were incubated in a solution containing 96 mM NaCl, 2 mM KCl, 1.8 mM CaCl2, 2 mM MgCl2, and 5 mM HEPES (pH 7.4), supplemented with 50 mg/L gentamycin sulfate. Two-electrode voltage-clamp recordings were performed at room temperature (18–22 °C) using a Geneclamp 500 amplifier (Molecular Devices, Downingtown, PA, USA) controlled by a pClamp data acquisition system (Axon Instruments, Union City, CA, USA). Whole-cell currents from oocytes were recorded 1–4 days after injection. The bath solution composition was 96 mM NaCl, 2 mM KCl, 1.8 mM CaCl2, 2 mM MgCl2, and 5 mM HEPES (pH 7.4). Voltage and current electrodes were filled with 3 M KCl. The resistances of both electrodes were kept between 0.8 and 1.5 MΩ. The elicited Nav channel currents were filtered at 1 kHz and sampled at 20 kHz by using a four-pole low-pass Bessel filter. Leak subtraction was performed using a −P/4 protocol. For the electrophysiological analysis of toxins, a series of protocols was applied from a holding potential of −90 mV with a start-to-start interval of 0.2 Hz. Sodium current traces were evoked by 100 ms depolarizations to V max (the voltage corresponding to maximum sodium current in control conditions).
To assess the concentration–response relationships, data were fitted with the Hill equation: y = 100/[1 + (EC50/[toxin])^ h ], where y is the amplitude of the toxin-induced effect (y = I 30 ms/I peak where I 30 ms is the current value at 30 ms in the presence of toxin and I peak is the peak current amplitude in control conditions), EC50 is the toxin concentration at half-maximal efficacy, [toxin] is the toxin concentration, and h is the Hill coefficient. Potassium and calcium currents were evoked by a 500 ms depolarization to the voltage corresponding to the maximal activation of the channels in control conditions from a holding potential of −90 mV. Elicited currents were sampled at 1 kHz and filtered at 0.5 kHz. For nAChR experiments, the oocytes were clamped at a holding potential of −70 mV and continuously superfused with ND96 via gravity-fed tubes at 0.1–0.2 mL min^–1, with 5 min incubation times for the bath-applied peptides. ACh was applied via gravity-fed tubes until a peak current amplitude was obtained (1–3 s), with 1–2 min washout periods between applications. The nAChR were gated by a particular time duration pulse of ACh for the respective nAChR subtype at 2 mL min^–1. Data were sampled at 500 Hz and filtered at 200 Hz. ASIC1a currents were measured in ND96 solutions at a pH of 7.4 and 4.5, at a holding potential of −70 mV during 400 s, and the data were filtered at 20 Hz. EnaC currents were measured by clamping oocytes at a holding potential of −60 mV and perfusing with low- (1 mM) and high- (96 mM) sodium ND96. Opioid currents were measured by clamping the potential to −70 mV and changing the perfusion solution from ND96 to high-potassium (HK) solution composed of 96 mM KCl, 2 mM NaCl, 1 mM MgCl2, 1.8 mM CaCl2, and 5 mM HEPES, with a final pH of 7.5. The HK-evoked increase in inward K^+ currents represents a “basal” K^+ current (IK, basal). In the presence of HK, 0.2 μM morphine was applied to oocytes and then washed out by HK. TRPV1 and TRPA1 currents were continuously monitored in a perfusing ND96 solution, following a protocol at −90 mV for 400 s. The sampling rate was set at 100 Hz, and the signals were filtered at 20 Hz. One μM capsaicin and 10 μM capsazepine were used for TRPV1. […]

Row | Compound | EC50 (BgNav1) | EC50 (BgNav1; listed as alpha-1) | EC50 Nav1.5 (hNaV1.5)
1 | CC[C@H](C)[C@@H]1NC(=O)[C@@H](NC(=O)CN)CSSC[C@@H]2NC(=O)[C@@H]3CSSC[C@@H](C(=O)N[C@@H](CC(N)=O)C(=O)N4C[C@H](O)C[C@H]4C(=O)N4C[C@H](O)C[C@H]4C(=O)N[C@@H](CC(N)=O)C(=O)N[C@@H](CCC(N)=O)C(=O)O)NC(=O)[C@H](CCCCN)NC(=O)[C@H](Cc4ccccc4)NC(=O)[C@H](CC(N)=O)NC(=O)[C@H](Cc4c[nH]c5ccccc45)NC(=O)CNC(=O)[C@H](CSSC[C@H](NC(=O)[C@H](Cc4ccccc4)NC(=O)[C@H](CO)NC(=O)CNC(=O)[C@H]([C@@H](C)O)NC(=O)[C@H](C)NC1=O)C(=O)N[C@@H]([C@@H](C)O)C(=O)N[C@@H](CC(C)C)C(=O)N[C@@H](CO)C(=O)N[C@@H](CCCCN)C(=O)NCC(=O)N3)NC(=O)[C@H](CC(N)=O)NC(=O)[C@H](CCCCN)NC(=O)[C@H]([C@@H](C)O)NC2=O [Alpha-1, nemertide alpha-1, reference compound] | 8.6 ± 2.9 nM | 10.3 nM | –
2 | CC[C@H](C)[C@@H]1NC(=O)[C@@H](NC(=O)CN)CSSC[C@@H]2NC(=O)[C@@H]3CSSC[C@@H](C(=O)N[C@@H](CC(N)=O)C(=O)N4C[C@H](O)C[C@H]4C(=O)N4C[C@H](O)C[C@H]4C(=O)N[C@@H](CC(N)=O)C(=O)N[C@@H](CCC(N)=O)C(=O)O)NC(=O)[C@H](CCCCN)NC(=O)[C@H](Cc4ccccc4)NC(=O)[C@H](CC(N)=O)NC(=O)[C@H](Cc4c[nH]c5ccccc45)NC(=O)CNC(=O)[C@H](CSSC[C@H](NC(=O)[C@H](C)NC(=O)[C@H](CO)NC(=O)CNC(=O)[C@H]([C@@H](C)O)NC(=O)[C@H](C)NC1=O)C(=O)N[C@@H]([C@@H](C)O)C(=O)N[C@@H](CC(C)C)C(=O)N[C@@H](CO)C(=O)N[C@@H](CCCCN)C(=O)NCC(=O)N3)NC(=O)[C@H](CC(N)=O)NC(=O)[C@H](CCCCN)NC(=O)[C@H]([C@@H](C)O)NC2=O [Peptide F8A] | 68.7 ± 12.8 nM | – | –
3 | CC(C)C[C@@H]1NC(=O)[C@H]([C@@H](C)O)NC(=O)[C@@H]2CSSC[C@@H]3NC(=O)[C@H](CC(N)=O)NC(=O)[C@H](CCCCN)NC(=O)[C@H]([C@@H](C)O)NC(=O)[C@H](CSSC[C@H](NC(=O)CN)C(=O)N[C@@H](C)C(=O)N[C@@H](C)C(=O)N[C@@H]([C@@H](C)O)C(=O)NCC(=O)N[C@@H](CO)C(=O)N[C@@H](Cc4ccccc4)C(=O)N2)NC(=O)[C@H](CSSC[C@@H](C(=O)N[C@@H](CC(N)=O)C(=O)N2C[C@H](O)C[C@H]2C(=O)N2C[C@H](O)C[C@H]2C(=O)N[C@@H](CC(N)=O)C(=O)N[C@@H](CCC(N)=O)C(=O)O)NC(=O)[C@H](CCCCN)NC(=O)[C@H](Cc2ccccc2)NC(=O)[C@H](CC(N)=O)NC(=O)[C@H](Cc2c[nH]c4ccccc24)NC(=O)CNC3=O)NC(=O)CNC(=O)[C@H](CCCCN)NC(=O)[C@H](CO)NC1=O [Peptide I3A] | 49.7 ± 9.1 nM | – | –
4 | CC[C@H](C)[C@@H]1NC(=O)[C@@H](NC(=O)CN)CSSC[C@@H]2NC(=O)[C@@H]3CSSC[C@@H](C(=O)N[C@@H](CC(N)=O)C(=O)N4C[C@H](O)C[C@H]4C(=O)N4C[C@H](O)C[C@H]4C(=O)N[C@@H](CC(N)=O)C(=O)N[C@@H](CCC(N)=O)C(=O)O)NC(=O)[C@H](CCCCN)NC(=O)[C@H](Cc4ccccc4)NC(=O)[C@H](CC(N)=O)NC(=O)[C@H](Cc4c[nH]c5ccccc45)NC(=O)CNC(=O)[C@H](CSSC[C@H](NC(=O)[C@H](Cc4ccccc4)NC(=O)[C@H](CO)NC(=O)CNC(=O)[C@H]([C@@H](C)O)NC(=O)[C@H](C)NC1=O)C(=O)N[C@@H]([C@@H](C)O)C(=O)N[C@@H](CC(C)C)C(=O)N[C@@H](CO)C(=O)N[C@@H](C)C(=O)NCC(=O)N3)NC(=O)[C@H](CC(N)=O)NC(=O)[C@H](CCCCN)NC(=O)[C@H]([C@@H](C)O)NC2=O [Peptide K13A] | 386 ± 32.4 nM | – | –
5 | CC[C@H](C)[C@@H]1NC(=O)[C@@H](NC(=O)CN)CSSC[C@@H]2NC(=O)[C@@H]3CSSC[C@@H](C(=O)N[C@@H](CC(N)=O)C(=O)N4C[C@H](O)C[C@H]4C(=O)N4C[C@H](O)C[C@H]4C(=O)N[C@@H](CC(N)=O)C(=O)N[C@@H](CCC(N)=O)C(=O)O)NC(=O)[C@H](CCCCN)NC(=O)[C@H](Cc4ccccc4)NC(=O)[C@H](CC(N)=O)NC(=O)[C@H](Cc4c[nH]c5ccccc45)NC(=O)CNC(=O)[C@H](CSSC[C@H](NC(=O)[C@H](Cc4ccccc4)NC(=O)[C@H](CO)NC(=O)CNC(=O)[C@H]([C@@H](C)O)NC(=O)[C@H](C)NC1=O)C(=O)N[C@@H]([C@@H](C)O)C(=O)N[C@@H](CC(C)C)C(=O)N[C@@H](CO)C(=O)N[C@@H](CCCCN)C(=O)NCC(=O)N3)NC(=O)[C@H](CC(N)=O)NC(=O)[C@H](C)NC(=O)[C@H]([C@@H](C)O)NC2=O [Peptide K18A] | 32.9 ± 10.9 nM | – | –
6 | CC[C@H](C)[C@@H]1NC(=O)[C@@H](NC(=O)CN)CSSC[C@@H]2NC(=O)[C@@H]3CSSC[C@@H](C(=O)N[C@@H](CC(N)=O)C(=O)N4C[C@H](O)C[C@H]4C(=O)N4C[C@H](O)C[C@H]4C(=O)N[C@@H](CC(N)=O)C(=O)N[C@@H](CCC(N)=O)C(=O)O)NC(=O)[C@H](C)NC(=O)[C@H](Cc4ccccc4)NC(=O)[C@H](CC(N)=O)NC(=O)[C@H](Cc4c[nH]c5ccccc45)NC(=O)CNC(=O)[C@H](CSSC[C@H](NC(=O)[C@H](Cc4ccccc4)NC(=O)[C@H](CO)NC(=O)CNC(=O)[C@H]([C@@H](C)O)NC(=O)[C@H](C)NC1=O)C(=O)N[C@@H]([C@@H](C)O)C(=O)N[C@@H](CC(C)C)C(=O)N[C@@H](CO)C(=O)N[C@@H](CCCCN)C(=O)NCC(=O)N3)NC(=O)[C@H](CC(N)=O)NC(=O)[C@H](CCCCN)NC(=O)[C@H]([C@@H](C)O)NC2=O [Peptide K25A] | 455 ± 69.4 nM | – | no detectable activity; also recorded: inactive at the tested concentration
7 | CC[C@H](C)[C@@H]1NC(=O)[C@@H](NC(=O)CN)CSSC[C@@H]2NC(=O)[C@@H]3CSSC[C@@H](C(=O)N[C@@H](CC(N)=O)C(=O)N4C[C@H](O)C[C@H]4C(=O)N4C[C@H](O)C[C@H]4C(=O)N[C@@H](CC(N)=O)C(=O)N[C@@H](CCC(N)=O)C(=O)O)NC(=O)[C@H](CCCCN)NC(=O)[C@H](Cc4ccccc4)NC(=O)[C@H](C)NC(=O)[C@H](Cc4c[nH]c5ccccc45)NC(=O)CNC(=O)[C@H](CSSC[C@H](NC(=O)[C@H](Cc4ccccc4)NC(=O)[C@H](CO)NC(=O)CNC(=O)[C@H]([C@@H](C)O)NC(=O)[C@H](C)NC1=O)C(=O)N[C@@H]([C@@H](C)O)C(=O)N[C@@H](CC(C)C)C(=O)N[C@@H](CO)C(=O)N[C@@H](CCCCN)C(=O)NCC(=O)N3)NC(=O)[C@H](CC(N)=O)NC(=O)[C@H](CCCCN)NC(=O)[C@H]([C@@H](C)O)NC2=O [Peptide N23A] | 19.5 ± 3.4 nM | – | –

Entries after “also recorded” stand apart in the source; their conditions may differ.
